The entries are a selection whose mix differs from that of the whole data set. Active and inactive are the calls of the source. Calls come from the whole dose curve; as a rule, active = well fitted activation curve with a large enough effect; inconclusive = small, poorly fitted or top-dose-only effect, or another doubt; inactive = no such curve, though single readings can be large or run the other way.

Amino acid sequences for entries named in this document (tags omitted). A change or cut given only in a name is not applied to a line headed by its entry.
UniProt Q03431: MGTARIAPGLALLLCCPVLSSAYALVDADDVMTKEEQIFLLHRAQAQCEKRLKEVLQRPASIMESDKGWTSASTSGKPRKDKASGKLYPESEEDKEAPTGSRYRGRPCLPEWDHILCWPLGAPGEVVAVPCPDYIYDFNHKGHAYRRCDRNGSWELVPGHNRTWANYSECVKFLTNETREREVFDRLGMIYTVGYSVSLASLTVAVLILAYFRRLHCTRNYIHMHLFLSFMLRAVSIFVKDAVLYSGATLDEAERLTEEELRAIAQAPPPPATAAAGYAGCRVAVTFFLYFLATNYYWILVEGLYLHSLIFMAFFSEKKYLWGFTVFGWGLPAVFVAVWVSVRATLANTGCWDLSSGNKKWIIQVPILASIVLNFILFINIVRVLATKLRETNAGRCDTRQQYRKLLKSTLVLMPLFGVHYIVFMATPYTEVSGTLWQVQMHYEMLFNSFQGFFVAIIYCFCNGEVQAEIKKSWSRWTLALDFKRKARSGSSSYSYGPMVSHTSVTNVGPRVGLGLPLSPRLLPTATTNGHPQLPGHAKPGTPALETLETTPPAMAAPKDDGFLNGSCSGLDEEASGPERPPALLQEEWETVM

The experiment has as its target Parathyroid hormone/parathyroid hormone-related peptide receptor (Homo sapiens) (UniProt Q03431). The experiment is described as follows: qHTS for PTHR1 Agonists: Primary Screen. Note: nearly all actives have a fitted effect of over 55% in size. Particulars: HEK293 GP2 PTHR1 cells, GloSensor cAMP luminescence, 1 h; activation: at 115 µM (top of the series) unless noted.
With `O=P(Nc1nccs1)(c1ccccc1)c1ccccc1`, the activation was inactive: -13.4% [at 57.5 µM].
Regarding `CC(C)C(=O)NC(Sc1ccccc1)C(Cl)(Cl)Cl` (stereo unspecified), the activation entry was “inactive”.
Same read-out and setting: to `c1nnnn1CCn1cnnn1` belongs “inactive”; to `COc1ccc(N)c([N+](=O)[O-])c1[N+](=O)[O-]`, “inactive”; to `Nc1ccc(CCCCOc2ccccc2)cc1`, inactive: -48.8%.
On to `CN(C)C1(CNC(=O)c2ccc(Cl)c(S(N)(=O)=O)c2)CCCCC1`, for which the activation entry is “inactive”.
The same measure, in the same setting: next, `O=P(Nc1ccccn1)(c1ccc(Br)cc1)c1ccc(Br)cc1`: inactive: -13.3%; `O=P(Nc1nc2ccccc2s1)(c1ccccc1)c1ccccc1`: inactive: -4.02%.
Same read-out and setting: next, `C[C@H]1OP(=O)(Oc2ccccc2)[C@H](O)[C@H](O)[C@H]1N=[N+]=[N-]` (stereo partly specified): inactive: -22.8%; `CC(=O)NC(SC(=S)N(C)C)C(Cl)(Cl)Cl` (stereo unspecified): “inactive”.
Turning to `O=[N+]([O-])c1ncn(CCn2cnc([N+](=O)[O-])n2)n1`, the activation result was “inactive”.
As for `O=[N+]([O-])c1ccc(O)c(/C=N/Nc2ccc([N+](=O)[O-])cc2[N+](=O)[O-])c1`, the activation result was “inactive”.
`O=[As](O)(c1ccccc1)c1ccc(O)cc1`: the activation entry is “inactive”.
Still for that read-out and setting: next, `C(Cc1nn[nH]n1)Cc1nn[nH]n1`: “inactive”; `Nc1ccc([As](=O)(O)c2ccc([N+](=O)[O-])cc2)cc1`: “inactive”.
Take `O=C(OC1CN2CCC1CC2)c1cccc(Cl)c1` (stereo unspecified): the outcome was “inactive [at 57.5 µM]”.
Regarding `O=C(NC1CCS(=O)(=O)C1)NP(=S)(Oc1ccccc1)Oc1ccccc1` (stereo unspecified), the activation entry is “inactive”.
The same measure, in the same setting: next, `CCNC(=S)/N=C(\N)N[N+](=O)[O-]`: “inactive”.
Still for that read-out and setting: to `c1ccc(-c2nn[nH]n2)c(-c2nn[nH]n2)c1` belongs inactive: -46.2%.
The same measure, in the same setting: next, `Cc1ccc(NP(=O)(Oc2cccc(C)c2)Oc2cccc(C)c2)nc1`: “inactive”.
For the compound `O=P1(N(CCCl)CCCl)OCCC2CCCCN21` (stereo unspecified), the activation result was “inactive”.
For `COC(=O)c1cc2c(s1)N=C(c1ccccc1)N(C)P2(=O)N1CCOCC1` (stereo unspecified), the outcome is “inactive [at 57.5 µM]”.
In the case of `CC(=O)NC(SC(=S)N(CC(C)C)CC(C)C)C(Cl)(Cl)Cl` (stereo unspecified), the activation result was “inactive”.
On the same count and under the same terms, next, `Cc1ccc(OP(=O)(Nc2ccccn2)Oc2ccc(C)cc2)cc1`: inactive: -37.1%.
On the same count and under the same terms, next, `O=C(OC1CN2CCC1CC2)c1ccccc1` (stereo unspecified): “inactive”; `CCC(=O)N1C2C3N(C(=O)CC)C1C1N(C(=O)CC)C(C(N1C(=O)CC)N3C(=O)CC)N2C(=O)CC`: inactive: -18.8% [at 57.5 µM].
Consider `CC(NC(=O)COC(=O)C(O)(c1ccccc1)c1ccccc1)c1ccccc1` (stereo unspecified), for which the activation was inactive: -75%.
As to `Cc1ccccc1OP(=O)(Nc1ccccn1)Oc1ccccc1C`, the activation was inactive: -40.2%.
The same measure, in the same setting: to `O=c1c2cc([N+](=O)[O-])ccc2[nH]c2c([N+](=O)[O-])cc([N+](=O)[O-])cc12` belongs inactive: -21.7%; to `CN(C)C(=O)Oc1noc2ccccc12`, “inactive”; to `O=P1(Nc2nc3ccc(Cl)cc3s2)COc2ccccc2O1` (stereo unspecified), inactive: -1.78%.
Regarding `CCOc1ccc(C2=NCC(CBr)S2)cc1` (stereo unspecified), the activation is inactive: -0.817%.
On the same count and under the same terms, to `CCc1cc(O)c([N+](=O)[O-])c(C)c1[N+](=O)[O-]` belongs inactive: -25%; to `CC(C)(C)C(=O)NC(Sc1ccccc1)C(Cl)(Cl)Cl` (stereo unspecified), inactive: -22.9%.
Still for that read-out and setting: to `CC(=O)c1ccc(N2CC2c2ccncc2)cc1` (stereo unspecified) belongs “inactive”; to `N#C/C(=C\c1ccc(N(CCBr)CCBr)cc1)C(N)=O`, inactive: -14.7%; to `COC(=O)C1(C)COP(=O)(NCc2ccccc2)OC1` (stereo unspecified), inactive: -0.276%.
For the compound `Cc1ccccc1CN(C)C(=O)COC(=O)C(O)(c1ccccc1)c1ccccc1`, the activation was inactive: -32.2%.
On to `C[C@H]1OP(=O)(Oc2ccccc2)C[C@@H]2O[C@@H]21` (stereo partly specified), for which the activation entry was “inactive”.
Still for that read-out and setting: next, `C[C@@H]1C=CCP(=O)(Oc2ccccc2)O1` (stereo partly specified): inactive: -17.5%; `CC(=O)Nc1ccc([As](=O)(O)O)c(O)c1`: “inactive”; `CC(=O)Nc1ccc(Oc2c([N+](=O)[O-])cc([N+](=O)[O-])cc2[N+](=O)[O-])cc1`: inactive: -34%.
Still for that read-out and setting: to `NC(=O)c1cc([N+](=O)[O-])cc([N+](=O)[O-])c1N` belongs inactive: -4.68%.
In the case of `CN(C(=O)Cc1ccc(Cl)c(Cl)c1)[C@H]1CCCC[C@H]1N1CCCC1`, the activation is inactive: -16.9%.
Same read-out and setting: to `COc1ccccc1OP(=O)(Nc1ccc(C)cn1)Oc1ccccc1OC` belongs inactive: -24.9%; to `Cc1ccc(OP(=O)(Nc2nccs2)Oc2ccc(C)cc2)cc1`, “inactive”; to `CN1CCCC(OC(=O)C(c2ccccc2)c2ccccc2)C1` (stereo unspecified), “inactive”.
The same measure, in the same setting: to `Clc1ccc(Cl)c(NC2=NCC(CBr)S2)c1` (stereo unspecified) belongs inactive: -16.5%.
The same measure, in the same setting: next, `Nc1cc(N)c2nonc2c1[N+](=O)[O-]`: “inactive”.
For `CC(C)CC(=O)NC(Sc1ccc(Cl)cc1)C(Cl)(Cl)Cl` (stereo unspecified), the outcome was “inactive [at 57.5 µM]”.
Regarding `Oc1ccccc1CNc1ccccn1`, the activation entry is “inactive”.
The same measure, in the same setting: next, `O=C(NC(Sc1ccncn1)C(Cl)(Cl)Cl)c1ccccc1` (stereo unspecified): inactive: -17.2%; `O=[N+]([O-])C1C(O)C(O)C([N+](=O)[O-])C(O)C1O` (stereo unspecified): inactive: -23.2%; `CC(=O)Nc1ccc([As](=O)(O)O)cc1`: inactive: -28.2%.
For `O=C(O)c1ccccc1[As](=O)(O)O`, the activation result is “inactive”.
On the same count and under the same terms, to `CCCC1OP(N)(=O)OCC1CC` (stereo unspecified) belongs “inactive”.
Consider `O=P(Nc1nc2ccc(Cl)cc2s1)(c1ccccc1)c1ccccc1`, for which the activation is inactive: -23.6%.
The same measure, in the same setting: to `CN(C)P(=O)(N(C)C)n1c(Nc2ccccc2)nnc1-c1ccccc1` belongs “inactive”; to `Cc1cc(SC(NC(=O)c2ccc(F)cc2)C(Cl)(Cl)Cl)ncn1` (stereo unspecified), “inactive”.
As to `CCOP(=O)(Nc1ccccc1)OCC`, the outcome is “inactive [at 57.5 µM]”.
Regarding `CN(C(=O)Cc1ccc(Cl)c(Cl)c1)[C@H]1CCCC[C@@H]1N1CCCC1`, the activation is inactive: -24.3%.
On the same count and under the same terms, next, `Cc1ccc(NP(=O)(Oc2ccccc2F)Oc2ccccc2F)nc1`: “inactive”.
On the same count and under the same terms, next, `CCN(N=Nc1nonc1N)c1nonc1N`: inactive: -15.2%; `Nc1cccc2ccc([As](=O)(O)O)cc12`: inactive: 8.63%; `O=P1(N(CCCl)CCCl)OCCCS1` (stereo unspecified): “inactive”.
The same measure, in the same setting: next, `O=C(Nc1cc([As](=O)(O)O)ccc1O)c1ccccc1`: “inactive”; `CC(C)(C)C(=O)NC(Sc1ccncn1)C(Cl)(Cl)Cl` (stereo unspecified): “inactive”.
With `O=[N+]([O-])c1ncn(CCn2ncnc2[N+](=O)[O-])n1`, the activation is inactive: -22.6%.
For `COC(=O)C1(C)COP(=O)(Nc2ccccc2)OC1` (stereo unspecified), the activation entry was “inactive”.
The same measure, in the same setting: next, `O=[N+]([O-])c1cccc(NC2=NCC(CBr)S2)c1` (stereo unspecified): “inactive”.
The same measure, in the same setting: next, `O=C(O)CNc1ccc([As](=O)(O)O)cc1`: inactive: -2.69%; `COc1ccc(C2=NCC(CBr)S2)cc1` (stereo unspecified): “inactive”.
Take `CC(=O)N1C2C3N(C(C)=O)C1C1N(C(C)=O)C(C(N1C(C)=O)N3C(C)=O)N2C(C)=O`: the outcome is “inactive [at 57.5 µM]”.
On the same count and under the same terms, next, `O=[N+]([O-])c1cccc2n[nH]nc12`: “inactive [at 57.5 µM]”.
On to `Cc1ccc(NP(=O)(Oc2ccccc2)Oc2ccccc2)nc1`, for which the activation was inactive: -16.1%.
Turning to `O=[N+]([O-])c1cc([N+](=O)[O-])c(CCNc2ccccc2)c([N+](=O)[O-])c1`, the activation entry was “inactive”.
Turning to `CCc1nc2c(n1)c1c(non1O)c1c2no[n+]1[O-]`, the activation was inactive: -25.9%.
With `Nc1ccc([As](=O)(O)c2ccc(N)cc2)cc1`, the activation result is “inactive”.
In the case of `CCN(/C(=N/P(=O)(N1CCOCC1)N1CCOCC1)N1CCOCC1)c1ccc(OC)cc1`, the activation result was “inactive”.
Same read-out and setting: to `CC(C)c1nc(Nc2ccccc2)n(P(=O)(N(C)C)N(C)C)n1` belongs “inactive”; to `CC(C)=N/N=C(\N)N[N+](=O)[O-]`, “inactive”.
`CN(C)C(=O)OCCc1n(C)cc[n+]1C`: the activation entry is “inactive”.
The same measure, in the same setting: to `CC1CCN(C(=O)Oc2c(Cl)cc(Cl)c3cccnc23)CC1` belongs inactive: -10.2% [at 57.5 µM].
On the same count and under the same terms, next, `c1cc(-c2nn[nH]n2)ccc1-c1nn[nH]n1`: inactive: -18.6%; `COP1(=S)c2c(C)nn(CCC#N)c2N=C(c2ccc(F)cc2)N1C` (stereo unspecified): inactive: -10.8% [at 57.5 µM]; `COC(=O)C1(C)COP(=O)(N2CCCC2)OC1` (stereo unspecified): inactive: -23.4%.
Regarding `O=C(COc1ccccc1)OC1CN2CCC1CC2` (stereo unspecified), the outcome was “inactive [at 57.5 µM]”.
Turning to `O=C(Nc1ccncc1[N+](=O)[O-])c1ccc([N+](=O)[O-])cc1[N+](=O)[O-]`, the activation is inactive: -26.3%.
On the same count and under the same terms, next, `O=C(O)C(=O)c1ccc(N(CCCl)CCCl)cc1`: “inactive”; `CCOC(=O)c1ccc(NC(=O)C(C)(CCl)SC)cc1` (stereo unspecified): “inactive”.
Still for that read-out and setting: to `O=C(OC1CN2CCC1CC2)c1cccc([N+](=O)[O-])c1` (stereo unspecified) belongs inactive: -8.4%; to `CSc1ccc(Nc2c([N+](=O)[O-])cc([N+](=O)[O-])cc2[N+](=O)[O-])cc1`, “inactive”; to `CCC(C)N(CC(C)C)C(=S)SC(NC(C)=O)C(Cl)(Cl)Cl` (stereo unspecified), inactive: -8.15% [at 57.5 µM].
Still for that read-out and setting: to `CC1CCNP(=O)(N(CCCl)CCCl)O1` (stereo unspecified) belongs inactive: -22%.
With `O=C(O)C(O)c1ccc(N(CCCl)CCCl)cc1` (stereo unspecified), the activation was inactive: -8.39%.
On to `CCCCOc1ccc(C(=O)NCC2(N3CCCCC3)CCCCC2)cc1OC`, for which the activation is inactive: -5.99%.
Still for that read-out and setting: to `Cc1cc(SC(NC(=O)c2ccccc2)C(Cl)(Cl)Cl)nc(C(C)C)n1` (stereo unspecified) belongs inactive: -10.2%.
On the same count and under the same terms, next, `COP(=O)(OC)N1CC1c1ccccc1` (stereo unspecified): “inactive”; `CCOC(=O)Nc1cccc([As](=O)(O)O)c1`: “inactive”; `O=[N+]([O-])c1ccc(Nc2ccc(Oc3ccc([N+](=O)[O-])cc3[N+](=O)[O-])cc2)c([N+](=O)[O-])c1`: inactive: -46.9%.
The same measure, in the same setting: next, `Cc1cc(SC(NC=O)C(Cl)(Cl)Cl)ncn1` (stereo unspecified): inactive: -1.8%; `O=P(Nc1ccccn1)(c1cccc2ccccc12)c1cccc2ccccc12`: inactive: -3.29%.
Consider `O=[As](O)(c1ccc(O)cc1)c1ccccc1O`, for which the activation is inactive: -26.8%.
Turning to `C[As](=O)(O)c1cccc(C(=O)O)c1`, the activation result was “inactive”.
Still for that read-out and setting: next, `O=[N+]([O-])c1ccc(-c2cc([N+](=O)[O-])c(O)c([N+](=O)[O-])c2)cc1`: inactive: -10.8%; `COc1cc(C(=O)NCC2(N3CCOCC3)CCCCC2)ccc1OCC(C)C`: inactive: 9%.

These data come from PubChem BioAssay AID743266 (National Center for Advancing Translational Sciences (NCATS), 2014).
